The source of these data is patent publication US7700560B2 (University of Maryland, Baltimore County, priority 2003, dated 2010).

The chains behind the UniProt entries cited, without tags or fusion partners. Residues count along the entry.
UniProt Q04760, 2-184 limits assumed: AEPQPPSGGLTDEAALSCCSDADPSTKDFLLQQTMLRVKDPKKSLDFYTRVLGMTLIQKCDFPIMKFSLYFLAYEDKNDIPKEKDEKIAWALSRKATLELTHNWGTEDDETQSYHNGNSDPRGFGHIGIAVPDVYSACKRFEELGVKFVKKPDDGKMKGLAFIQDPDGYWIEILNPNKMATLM

This assay has as its target human GlxI (Homo sapiens, UniProt Q04760). The assay is described as follows: Competitive inhibition constants (Kis) with human GlxI. The settings on record: read-out: Ki, hGlxI; sodium phosphate buffer, 50 mM, pH 7, 25° C.; mean (±S.D.) triplicate.

In the case of `NCCC(=O)NCCC(=O)NCCC(=O)NCCC(=O)NCCC(=O)N[C@@H](CCC(=O)N[C@@H](CSC(=O)N(O)c1ccc(Cl)cc1)C(=O)NCC(=O)O)C(=O)O`, the Ki came out at 744 nM.
